Laboratory results reported in patent US9242993B2, “Morpholino substituted bicyclic pyrimidine urea or carbamate derivatives as mTOR inhibitors” (CELLZOME LIMITED, priority 2011, dated 2016).

Sequences of proteins named here, by UniProt entry; tags and fusion partners are left off. A change or cut given only in a name is not applied to a line headed by its entry.
UniProt P42336, whole entry: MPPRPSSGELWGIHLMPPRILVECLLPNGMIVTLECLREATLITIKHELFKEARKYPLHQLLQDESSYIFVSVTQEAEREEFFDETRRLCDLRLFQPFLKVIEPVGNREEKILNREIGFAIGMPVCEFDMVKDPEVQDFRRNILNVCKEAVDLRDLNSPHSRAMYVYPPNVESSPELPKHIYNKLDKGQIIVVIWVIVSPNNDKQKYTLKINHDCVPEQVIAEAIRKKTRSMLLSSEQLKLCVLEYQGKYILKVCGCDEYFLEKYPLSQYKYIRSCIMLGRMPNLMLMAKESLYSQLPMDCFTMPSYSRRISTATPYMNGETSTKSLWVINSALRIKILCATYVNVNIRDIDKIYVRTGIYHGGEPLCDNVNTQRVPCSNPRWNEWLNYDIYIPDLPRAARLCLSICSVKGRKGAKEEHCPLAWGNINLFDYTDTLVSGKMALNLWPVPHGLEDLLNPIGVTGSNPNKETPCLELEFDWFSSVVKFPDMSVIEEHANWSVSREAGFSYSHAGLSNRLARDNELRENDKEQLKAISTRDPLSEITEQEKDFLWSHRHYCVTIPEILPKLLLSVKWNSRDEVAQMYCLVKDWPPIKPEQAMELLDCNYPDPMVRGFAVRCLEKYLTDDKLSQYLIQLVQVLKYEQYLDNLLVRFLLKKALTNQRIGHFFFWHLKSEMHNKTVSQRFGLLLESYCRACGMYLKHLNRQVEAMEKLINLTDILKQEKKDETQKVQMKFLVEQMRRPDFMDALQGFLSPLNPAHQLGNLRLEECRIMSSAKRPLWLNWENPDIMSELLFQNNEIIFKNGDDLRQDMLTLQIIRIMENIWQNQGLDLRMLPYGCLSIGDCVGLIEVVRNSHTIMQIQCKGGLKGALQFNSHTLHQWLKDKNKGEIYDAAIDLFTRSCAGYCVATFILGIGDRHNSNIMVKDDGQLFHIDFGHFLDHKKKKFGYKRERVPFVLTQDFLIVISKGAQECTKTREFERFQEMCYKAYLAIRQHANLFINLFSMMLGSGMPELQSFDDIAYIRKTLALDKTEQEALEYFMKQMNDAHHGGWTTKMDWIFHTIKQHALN
UniProt P42338: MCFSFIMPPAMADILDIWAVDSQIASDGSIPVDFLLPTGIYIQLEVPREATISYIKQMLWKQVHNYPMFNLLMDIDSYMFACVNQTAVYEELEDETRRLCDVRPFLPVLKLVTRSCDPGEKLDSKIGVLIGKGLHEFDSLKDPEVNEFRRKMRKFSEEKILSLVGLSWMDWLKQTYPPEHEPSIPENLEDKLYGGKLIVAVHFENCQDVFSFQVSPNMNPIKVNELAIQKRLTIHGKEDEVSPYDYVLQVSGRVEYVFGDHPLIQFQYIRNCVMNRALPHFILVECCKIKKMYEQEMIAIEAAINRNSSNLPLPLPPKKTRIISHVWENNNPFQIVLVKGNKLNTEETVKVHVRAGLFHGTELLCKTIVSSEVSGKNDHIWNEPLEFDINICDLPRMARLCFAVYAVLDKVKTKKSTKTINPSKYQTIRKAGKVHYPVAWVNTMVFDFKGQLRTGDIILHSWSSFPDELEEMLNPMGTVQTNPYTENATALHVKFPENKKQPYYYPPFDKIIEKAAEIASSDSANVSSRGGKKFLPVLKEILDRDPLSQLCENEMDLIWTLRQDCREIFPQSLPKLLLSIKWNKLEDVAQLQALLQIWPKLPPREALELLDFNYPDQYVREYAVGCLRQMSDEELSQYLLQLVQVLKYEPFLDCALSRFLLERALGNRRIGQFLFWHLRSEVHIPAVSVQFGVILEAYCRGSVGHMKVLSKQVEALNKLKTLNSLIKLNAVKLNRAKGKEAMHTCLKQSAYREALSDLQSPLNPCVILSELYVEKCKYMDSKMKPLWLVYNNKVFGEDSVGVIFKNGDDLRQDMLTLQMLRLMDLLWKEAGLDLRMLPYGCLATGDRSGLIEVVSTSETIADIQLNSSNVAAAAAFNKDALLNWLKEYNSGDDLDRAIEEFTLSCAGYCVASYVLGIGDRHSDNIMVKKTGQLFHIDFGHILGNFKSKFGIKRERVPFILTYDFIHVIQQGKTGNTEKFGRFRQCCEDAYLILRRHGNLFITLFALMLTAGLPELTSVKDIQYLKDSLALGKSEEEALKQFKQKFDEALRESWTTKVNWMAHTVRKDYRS
UniProt P48736: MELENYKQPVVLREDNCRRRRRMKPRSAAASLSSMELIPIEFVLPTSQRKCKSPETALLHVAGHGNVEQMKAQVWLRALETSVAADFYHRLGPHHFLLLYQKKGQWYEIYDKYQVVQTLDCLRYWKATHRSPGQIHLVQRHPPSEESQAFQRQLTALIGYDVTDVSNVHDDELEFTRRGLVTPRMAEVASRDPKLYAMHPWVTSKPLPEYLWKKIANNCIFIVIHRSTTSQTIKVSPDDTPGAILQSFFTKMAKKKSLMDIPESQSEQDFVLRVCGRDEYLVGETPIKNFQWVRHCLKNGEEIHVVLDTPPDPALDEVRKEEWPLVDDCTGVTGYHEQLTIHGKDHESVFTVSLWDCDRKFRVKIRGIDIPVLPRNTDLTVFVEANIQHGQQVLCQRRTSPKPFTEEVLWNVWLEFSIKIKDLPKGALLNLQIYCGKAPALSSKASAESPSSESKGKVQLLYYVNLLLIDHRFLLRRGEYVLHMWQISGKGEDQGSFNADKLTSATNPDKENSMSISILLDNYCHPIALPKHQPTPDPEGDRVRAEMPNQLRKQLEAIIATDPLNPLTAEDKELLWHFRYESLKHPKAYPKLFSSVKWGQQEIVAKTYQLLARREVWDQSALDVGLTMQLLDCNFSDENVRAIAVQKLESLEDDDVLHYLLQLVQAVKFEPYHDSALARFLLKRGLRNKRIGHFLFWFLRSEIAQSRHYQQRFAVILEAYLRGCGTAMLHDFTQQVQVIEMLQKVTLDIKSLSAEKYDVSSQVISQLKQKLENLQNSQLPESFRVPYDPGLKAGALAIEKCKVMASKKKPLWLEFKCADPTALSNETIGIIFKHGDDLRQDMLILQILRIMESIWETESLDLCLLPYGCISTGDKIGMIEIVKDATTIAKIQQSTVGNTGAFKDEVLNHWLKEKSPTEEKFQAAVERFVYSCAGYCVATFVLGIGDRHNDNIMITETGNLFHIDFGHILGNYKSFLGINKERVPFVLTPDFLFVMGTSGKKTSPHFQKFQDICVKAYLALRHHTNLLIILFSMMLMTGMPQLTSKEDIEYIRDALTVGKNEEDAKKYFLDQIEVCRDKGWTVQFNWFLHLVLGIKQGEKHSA

How the values were obtained:
Type in all cases: binding
[1] = target: PI3K alpha (PI3Ka) (Homo sapiens, UniProt P42336); experiment: kinobeads assay, PI3K alpha; conditions: Jurkat cell lysate, read-out: PI3Ka inhibition value (IC50), activity level
[2] = target: PI3K beta (PI3 Kb) (Homo sapiens, UniProt P42338); experiment: kinobeads assay, PI3K beta; conditions: Jurkat cell lysate, read-out: PI3Kb inhibition value (IC50), activity level
[3] = target: PI3K gamma (PI3 Kg) (Homo sapiens, UniProt P48736); experiment: kinobeads assay, PI3K gamma; conditions: Jurkat cell lysate, read-out: PI3Kg inhibition value (IC50), activity level

## CC1c2c(N3CCOCC3)nc(-c3ccc(NC(=O)NCCF)cc3)nc2C(C)(C)S1(=O)=O (stereo not drawn) [Example 81, 1-(2-fluoroethyl)-3-(4-(5,7,7-trimethyl-4-morpholino-6,6-dioxido-5,7-dihydrothieno[3,4-d]pyrimidin-2-yl)phenyl)urea]
[1]
  IC50: > 10 µM
[2]
  IC50: > 10 µM
[3]
  IC50: > 10 µM

## CC[C@H]1COCCN1c1nc(-c2ccc(NC(=O)NC)cc2)nc2c1C(C)S(=O)(=O)C2(C)C (stereo partly drawn) [Example 80, 1-(4-(4-((S)-3-ethylmorpholino)-5,7,7-trimethyl-6,6-dioxido-5,7-dihydrothieno[3,4-d]pyrimidin-2-yl)phenyl)-3-methylurea]
[1]
  IC50: > 10 µM
[2]
  IC50: > 10 µM
[3]
  IC50: > 10 µM

## CC[C@H]1COCCN1c1nc(-c2ccc(NC(=O)NC)cc2F)nc2c1C(C)S(=O)(=O)C2(C)C (stereo partly drawn) [Example 79, 1-(4-(4-((S)-3-ethylmorpholino)-5,7,7-trimethyl-6,6-dioxido-5,7-dihydrothieno[3,4-d]pyrimidin-2-yl)-3-fluorophenyl)-3-methylurea]
[3]
  IC50: > 10 µM

## C[C@H]1COCCN1c1nc(-c2ccc(NC(=O)NC3CC3)cc2)nc2c1CS(=O)(=O)CC2 [Example 4, (S)-1-cyclopropyl-3-(4-(4-(3-methylmorpholino)-6,6-dioxido-7,8-dihydro-5H-thiopyrano[4,3-d]pyrimidin-2-yl)phenyl)urea]
[1]
  IC50: > 10 µM

## C[C@@H]1c2c(N3CCOC[C@@H]3C)nc(-c3ccc(NC(=O)NC4CC4)cc3)nc2C(C)(C)S1(=O)=O [Example 82, 1-cyclopropyl-3-(4-((R)-5,7,7-trimethyl-4-((S)-3-methylmorpholino)-6,6-dioxido-5,7-dihydrothieno[3,4-d]pyrimidin-2-yl)phenyl)urea]
[1]
  IC50: > 10 µM
[2]
  IC50: > 10 µM
[3]
  IC50: > 10 µM

## C[C@H]1COCCN1c1nc(-c2ccc(NC(=O)NC3CC3)cc2)nc2c1CSCC2 [Example 3, (S)-1-cyclopropyl-3-(4-(4-(3-methylmorpholino)-7,8-dihydro-5H-thiopyrano[4,3-d]pyrimidin-2-yl)phenyl)urea]
[1]
  IC50: > 10 µM
